Experiments:
Assay type in all cases: cell-based
[1] = molecular target: human sphingosine-1-phosphate receptor 3 (S1P3) (Homo sapiens (Human), UniProt Q99500); assay: Inhibition of cAMP production (HTRF), S1P3 CHO-K1 cells
[2] = molecular target: T1, human sphingosine-1-phosphate receptor 1 (S1P1) (Homo sapiens (Human), UniProt P21453); assay: β-Arrestin2 recruitment assay (PathHunter), S1P1 CHO-K1 cells
Method: (§1) Stable clonal Chinese hamster ovary K1 (CHO-K1) cells co-expressing EA-β-arrestin2 and the human sphingosine-1-phosphate receptor 1 (NM_001400, S1P1) with a C-terminal Prolink™ tag were purchased from DiscoverX corporation (Cat #: 93-0207C2).
(§2) Cell lines were cultured in AssayComplete™ Media 6 (DiscoverX Corporation, Cat #: 920018GF2) at 37° C. and 5% CO2 in a humidified CO2 and temperature-controlled incubator. To begin assay plating, cells were washed with dulbecco's phosphate buffered saline (CellGro, Cat #: 21-031-CV) and lifted from the culturing flask by incubation (37° C., 5 min) with CellStripper (Cellgro, Cat #: 25-056-CI). Lifted cells were resuspended to 250,000 cells per milliliter in AssayComplete™ Cell Plating 11 Reagent (DiscoverX Corporation, Cat #: 93-0563R11B) and plated at 5,000 cells per well in white-opaque 384 well plates (Greiner Bio-One Item #: 20-784080). Plated cells were incubated overnight at 37° C. and 5% CO2 in a humidified CO2 and temperature-controlled incubator. Detecting Inhibition of cAMP Production
Agonist-promoted β-arrestin2 recruitment to the sphingosine-1-phosphate 1 receptor was determined using the β-arrestin PathHunter®) Detection kit (DiscoverX Corporation, Cat #: 93-0001). […] After an hour incubation at room temperature, plates were analyzed by a BMG PheraStar microplate reader. […]

Protein sequences, listed by entry. Tags and fused reporters are not part of them. Lines headed by an entry give the natural chain unless they say otherwise; changes in a name come on top.
UniProt Q99500: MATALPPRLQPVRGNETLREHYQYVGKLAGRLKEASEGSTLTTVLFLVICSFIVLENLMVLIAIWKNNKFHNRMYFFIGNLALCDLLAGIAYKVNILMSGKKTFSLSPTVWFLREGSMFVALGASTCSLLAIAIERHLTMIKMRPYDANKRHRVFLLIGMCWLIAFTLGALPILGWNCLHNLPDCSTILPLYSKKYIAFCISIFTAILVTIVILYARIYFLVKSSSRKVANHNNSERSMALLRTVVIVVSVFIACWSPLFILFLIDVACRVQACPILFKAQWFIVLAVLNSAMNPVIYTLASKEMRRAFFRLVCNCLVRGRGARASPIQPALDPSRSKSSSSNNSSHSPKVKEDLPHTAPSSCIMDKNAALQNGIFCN
UniProt P21453, whole entry, looked up: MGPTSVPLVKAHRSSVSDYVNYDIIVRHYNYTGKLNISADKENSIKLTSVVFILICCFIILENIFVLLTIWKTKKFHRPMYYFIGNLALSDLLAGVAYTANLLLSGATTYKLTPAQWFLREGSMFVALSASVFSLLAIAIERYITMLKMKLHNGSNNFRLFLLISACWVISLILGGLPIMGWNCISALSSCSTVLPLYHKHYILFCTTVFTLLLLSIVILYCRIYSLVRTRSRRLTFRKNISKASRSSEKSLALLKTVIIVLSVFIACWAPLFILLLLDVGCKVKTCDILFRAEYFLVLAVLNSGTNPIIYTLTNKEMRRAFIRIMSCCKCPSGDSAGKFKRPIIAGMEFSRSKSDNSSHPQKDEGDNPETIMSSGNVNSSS
UniProt Q9H228: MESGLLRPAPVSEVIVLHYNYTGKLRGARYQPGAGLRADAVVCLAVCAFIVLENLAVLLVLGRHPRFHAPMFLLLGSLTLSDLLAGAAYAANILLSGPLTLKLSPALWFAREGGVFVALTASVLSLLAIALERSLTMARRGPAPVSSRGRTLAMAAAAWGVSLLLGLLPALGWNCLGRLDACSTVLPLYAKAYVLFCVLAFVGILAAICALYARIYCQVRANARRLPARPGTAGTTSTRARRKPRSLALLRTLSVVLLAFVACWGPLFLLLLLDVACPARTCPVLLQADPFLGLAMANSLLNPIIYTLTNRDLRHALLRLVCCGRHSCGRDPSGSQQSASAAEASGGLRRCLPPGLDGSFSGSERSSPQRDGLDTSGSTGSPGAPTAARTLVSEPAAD
UniProt O95136: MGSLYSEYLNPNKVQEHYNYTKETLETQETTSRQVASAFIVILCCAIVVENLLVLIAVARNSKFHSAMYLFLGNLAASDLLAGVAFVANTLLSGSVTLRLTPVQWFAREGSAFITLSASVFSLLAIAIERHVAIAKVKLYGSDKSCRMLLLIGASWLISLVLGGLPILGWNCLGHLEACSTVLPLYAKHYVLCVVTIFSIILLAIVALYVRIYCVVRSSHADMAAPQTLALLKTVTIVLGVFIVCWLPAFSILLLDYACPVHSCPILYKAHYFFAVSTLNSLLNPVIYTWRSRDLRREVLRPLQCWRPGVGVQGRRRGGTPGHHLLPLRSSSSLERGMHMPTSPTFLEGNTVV

[3] = molecular target: sphingosine-1-phosphate receptor 5 (S1P5) (Homo sapiens (Human), UniProt Q9H228); assay: Inhibition of cAMP production (HTRF), S1P5 CHO-K1 cells
[4] = molecular target: human sphingosine-1-phosphate receptor 2 (S1P2) (Homo sapiens (Human), UniProt O95136); assay: Inositol monophosphate production (IP-one TB kit), S1P2 CHO-K1 cells
[5] = molecular target: T1, human sphingosine-1-phosphate receptor 1 (S1P1); assay: Inhibition of cAMP production (HTRF cAMP HiRange), S1P1 CHO-K1 cells
Method: as §1
as §2, with “Plated cells were incubated overnight at 37° C. and 5% CO2 in a humidified CO2 and temperature-controlled incubator. Detecting Inhibition of cAMP Production” left out
Agonist-promoted G-protein responses were determined by measuring changes in intracellular cAMP using the HTRF® cAMP HiRange kit (CisBio, Cat #: 62AM6PEJ) based on time-resolved fluorescence resonance energy transfer (TR-FRET) technology. […] After an hour incubation at room temperature, plates were analyzed by a BMG PheraStar microplate reader. Responses were measured as the ratio of fluorescence emission at 665 nm to fluorescence emission at 620 nm. […]

CC(C)Oc1ccc(-c2nc(-c3ccc4c(c3)nnn4C(C)C)no2)cc1C#N [Compound 22, 2-isopropoxy-5-(3-(1-isopropyl-1H-benzo[d][1,2,3]triazol-5-yl)-1,2,4-oxadiazol-5-yl)benzonitrile]
Emax ([1]; CHO-K1, efficacy normalized to fingolimod, read-out: hS1P3 cAMP SPAN): < 50%
hS1P3 cAMP pEC50 ([1]; inhibition of cAMP production, hS1P3): <5.0
Emax ([2]; CHO-K1, read-out: hS1P1 B-arrestin2 SPAN): > 75%
hS1P1 B-arrestin2 pEC50 ([2]; β-arrestin2 recruitment, S1P1 CHO-K1 cells): >5
Emax ([3]; CHO-K1, efficacy normalized to fingolimod, read-out: hS1P5 cAMP SPAN): < 50%
hS1P5 cAMP pEC50 ([3]; inhibition of cAMP production, hS1P5): >5.0
Emax ([4]; CHO-K1, read-out: hS1P2 IP-one SPAN): < 50%
hS1P2 IP-one pEC50 ([4]; inositol monophosphate accumulation, hS1P2): >5.0
Emax ([5]; CHO-K1, read-out: hS1P1 cAMP SPAN): > 75%
hS1P1 cAMP pEC50 ([5]; inhibition of cAMP production, S1P1 CHO-K1 cells): >6.5
